Measurements reported in patent US4866091A, “Alkanesulfonanilide derivatives, processes for preparation thereof and pharmaceutical composition comprising the same” (Fujisawa Pharmaceutical Co., Ltd., priority 1986, dated 1989).
Where two headings read alike, the source gives them in different places.

System: adjuvant arthritis in rats
Conditions: orally once a day for 23 days

## CS(=O)(=O)Nc1ccc(C#N)cc1Oc1ccc(F)cc1F.[Na] [Example 73, 4'-cyano-2'-(2,4-difluorophenoxy)methanesulfonanilide sodium salt]
Dose level 0.32 mg/kg
  Inhibition of Secondary Lesion (uninjected paw): 59.0%
Dose level 1.0 mg/kg
  Inhibition of Secondary Lesion (uninjected paw): 81.3%

## COc1ccc2cc([C@H](C)C(=O)O)ccc2c1 [Naproxen, reference compound]
Dose level 0.32 mg/kg
  Inhibition of Secondary Lesion (uninjected paw): 37.0%
Dose level 3.2 mg/kg
  Inhibition of Secondary Lesion (uninjected paw): 67.1%
